Series [1] relates to A431 (an EGFR overexpressing xenograft). Details: species or system mice. As to conditions: mouse, in vivo, iv. How it is done:
The biodistribution of tracer in each sample was calculated as percentage of the injected dose per gram of tissue wet weight (% ID/g).

Series [2] relates to DiFi human colon cancer cells. The series can be described thus: Cell proliferation assay (MTT). The format is cell-based. As to conditions: versus untreated cells. How it is done:
Briefly, DiFi cells are known to undergo apoptosis when they are exposed to C225 in cell culture. Cells were seeded onto 24-well culture plates. Cell viability was assayed by adding 50 ul of 10 mg/ml MTT (3-[4,5-dimethylthiazol-2-yl]-2,5-diphenyltetrazolium bromide) (Sigma) into 0.5 ml of culture medium and the cells were incubated for 3 h at a 37° C. in a CO2 incubator, followed by cell lysis with buffer containing 20% SDS in dimethyl formamide/H2O, pH 4.7, at 37° C. for more than 6 h. Cell viability was then determined by measuring the optical absorbance of cell lysate at a wavelength of 595 nm and normalizing the value with the corresponding untreated cells.

Turning to ^99mTc-EC-C225, the Total tumor uptake in series [1] is 6 % of injected dose.
In the case of “C225: clinical grade anti-EGF receptor MAb from ImClone Systems”, the “cell viability / cell proliferation (MTT)” value in series [2] was “induced cell death (apoptosis)”.
With EC-C225, in series [2], the “cell viability / cell proliferation (MTT)” value is listed as “biologically active in inducing cell death”.

Values taken from patent publication US9050378B2, “N2S2 chelate-targeting ligand conjugates” (Board of Regents, The University of Texas System, priority 2003, dated 2015).
